Measurements: patent US20130123201A1, “MODULATION OF CYTOKINE-INDUCED CHRONIC INFLAMMATORY RESPONSES” (UNIVERSITY OF MANITOBA, priority 2010, published 2013)

Legend:
Type in all cases: cell-based
[1] = tested on: AHA-labeled human monocytic THP-1 cells; assay: ELISA of IL-8 production by AHA-labeled THP-1 cells; settings: 10 ng/ml, 4 hr, p<0.001
Method: ELISA immunoassay: Tissue culture (TC) supernatants were centrifuged at 1500× g for 7 mM to obtain cell-free samples, aliquoted and stored at −20° C. until further use. Production of IL-8 was monitored using specific antibody pairs for ELISA (R&D Systems, Inc. Minneapolis, Minn., USA), as per the manufacturer's instructions. The concentration of IL-8 in the TC supernatants was evaluated by establishing a standard curve with serial dilutions of the recombinant human IL-8 as required.
AHA labeling, biotin tagging of nascent proteins, and affinity purification: Cells were washed with warm D-PBS, and cultured in methionine-free, serum-free RPMI media at 37° C. 5% CO2 for 60 min. The cells were then incubated in 100 μM Click-iT® AHA (Invitrogen Canada Inc.) (CLICK-iT is a registered trademark of Molecular Probes Inc., Eugene, Oreg., USA) in methionine-free and serum-free RPMI media in the presence and absence of either TNF-α (10 ng/ml) or IL-1β (10 ng/ml) for 4 hr. TC supernatants were monitored for the production of IL-8 by ELISA. […]
AHA-labeled human monocytic THP-1 cells were stimulated with either IL-1β (10 ng/ml) or TNF-α (10 ng/ml) for 4 hr. Cytokine treatment of AHA-labeled THP-1 cells was not cytotoxic as evaluated by monitoring LDH release in the tissue culture (TC) supernatant (data not shown). TC supernatants were also monitored for IL-8 production by ELISA. […]

[2] = tested on: human monocytic THP-1 cells; assay: Cellular cytotoxicity by LDH release; settings: AHA-labeled THP-1 cells, cytokine 10 ng/ml, 4 hr, data not shown
[3] = tested on: Human THP-1 monocytic cells; assay: qRT-PCR kinetics of cytokine-induced gene expression of identified candidates
Description: Quantitative real-time PCR (qRT-PCR): RNA was isolated using the Qiagen RNeasy® kit as per the manufacturer's instructions (Rneasy is a registered trademark of Qiagen GmbH, Hilden, Fed. Rep. Germany). Gene expression was subsequently analyzed by qRT-PCR using SuperScript® III Platinum Two-Step qRT-PCR Kit with SYBR Green (SuperScript is a registered trademark of Invitrogen Corp., Carlsbad, Calif., USA), according to the manufacturer's instructions, in the ABI PRISM® 7300 sequence detection system (BI PRISM is a registered trademark of Applera Corp., Foster City, Calif., USA). Fold changes were calculated by the comparative Ct method as taught by Pfaffl (2001) after normalization with 18sRNA.

TNF-α: Recombinant human cytokine TNF-α from eBioscience, used as stimulant
Production of IL-8 [1]: significant | Cytotoxicity of cytokine treatment (LDH release) [2]: not cytotoxic | Up-regulation of gene expression of PYGL [3]: 1.5 fold | Up-regulation of gene expression of RAB14 and Eifa3 ([3]; p≦0.01): but not
